Values quoted from earlier work as cited in US7741370B2, “Double salts of (−)-hydroxycitric acid and a process for preparing the same” (Laila Impex, priority 2004, dated 2010).

Conditions: prior-art salt (Singh et al.), statement in words

solubility in water: not very soluble in water
Substance: calcium salt of HCA
